Data on one molecule can be found in BindingDB's records for doi:10.1097/00001756-199710200-00002 (Cnrs Upr 9023, 1997).

By UniProt entry, the sequences of proteins in these tests, tags left out. Where a name states a change or a piece, a line headed by the entry shows the natural chain unless it says otherwise.
UniProt Q13639: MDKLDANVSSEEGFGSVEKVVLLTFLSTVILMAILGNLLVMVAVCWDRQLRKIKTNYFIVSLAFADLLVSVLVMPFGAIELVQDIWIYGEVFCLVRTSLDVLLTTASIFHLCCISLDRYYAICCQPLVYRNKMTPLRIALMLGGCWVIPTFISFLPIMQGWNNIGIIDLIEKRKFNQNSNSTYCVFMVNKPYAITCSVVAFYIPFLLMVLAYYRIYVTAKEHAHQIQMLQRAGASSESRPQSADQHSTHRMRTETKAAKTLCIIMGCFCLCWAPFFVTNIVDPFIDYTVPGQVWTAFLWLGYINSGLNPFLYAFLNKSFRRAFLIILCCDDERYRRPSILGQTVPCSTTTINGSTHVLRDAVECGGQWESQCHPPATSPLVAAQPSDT

Each structure is given as a SMILES string.

The test addresses 5-hydroxytryptamine receptor 4 (Homo sapiens, UniProt Q13639).

In general, Ki refers to the dissociation constant of the complex between target and ligand, obtained from inhibition or displacement. With `COc1cc(N)c(Cl)cc1C(=O)NC1CCN2CCCC1C2` (stereo unspecified) [NSC_3035240], the inhibition constant (Ki) is 174 nM.
